Assay results: patent US10344053B2, “Inhibitors for inhibiting tumor metastasis” (Forschungsverbund Berlin e.V., priority 2014, dated 2019)

What was measured:
[1] = Plasma protein binding (modified ultrafiltration), human; conditions: Table 3
[2] = Plasma protein binding (modified ultrafiltration), mouse; conditions: Table 3

Ac-Phe(2-CI)-[ProM-2][ProM-1]-NH2 [Compound 4C]
Plasma protein binding, fb (bound fraction) [1]: 4.5
Plasma protein binding, fb (bound fraction) [2]: 5.5
